Laboratory results published in BindingDB's records for 22325154.
pKi: −log10 of the molar value.

Protein sequences, listed by entry. Tags and fused reporters are not part of them. Residues count along the entry.
UniProt P00489, 2-843 limits assumed: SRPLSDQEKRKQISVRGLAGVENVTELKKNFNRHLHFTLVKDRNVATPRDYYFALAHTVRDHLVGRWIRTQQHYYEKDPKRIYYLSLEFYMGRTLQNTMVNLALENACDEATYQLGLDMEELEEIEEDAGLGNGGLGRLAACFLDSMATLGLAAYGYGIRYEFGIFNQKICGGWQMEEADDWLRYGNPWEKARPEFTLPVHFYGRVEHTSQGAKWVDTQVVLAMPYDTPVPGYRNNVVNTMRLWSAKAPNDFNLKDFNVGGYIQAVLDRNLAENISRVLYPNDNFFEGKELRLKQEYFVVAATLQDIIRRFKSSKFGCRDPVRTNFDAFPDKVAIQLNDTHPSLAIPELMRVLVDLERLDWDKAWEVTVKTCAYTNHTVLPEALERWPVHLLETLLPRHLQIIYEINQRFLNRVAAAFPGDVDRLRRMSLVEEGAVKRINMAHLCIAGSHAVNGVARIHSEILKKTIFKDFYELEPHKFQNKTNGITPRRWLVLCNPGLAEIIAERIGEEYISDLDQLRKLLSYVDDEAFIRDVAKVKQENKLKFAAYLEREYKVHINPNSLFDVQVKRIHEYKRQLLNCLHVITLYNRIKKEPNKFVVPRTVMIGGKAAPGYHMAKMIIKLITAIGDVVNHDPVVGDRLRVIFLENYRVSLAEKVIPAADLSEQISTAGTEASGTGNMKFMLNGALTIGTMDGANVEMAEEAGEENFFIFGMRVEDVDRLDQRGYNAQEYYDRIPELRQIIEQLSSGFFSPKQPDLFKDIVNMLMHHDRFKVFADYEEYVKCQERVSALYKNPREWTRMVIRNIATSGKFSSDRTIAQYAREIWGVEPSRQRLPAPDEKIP

Molecular target: Glycogen phosphorylase, muscle form (Oryctolagus cuniculus, UniProt P00489)
Conditions: pH 6.8

Question: `COP(=O)(N[C@@H]1O[C@H](CO)[C@@H](O)[C@H](O)[C@H]1O)OC` was tested. Which pKi did it give?
Answer: 2.23
